According to article PMC6559718 (Journal of biomolecular screening, 2016):

Test system: four hANT yeast strains
Settings: fermentable YPD medium

## O=C(Nc1cc(C(F)(F)F)cc(C(F)(F)F)c1)c1cc(Cl)ccc1O [IMD 0354]
  cytotoxic effect in glucose-containing medium: exhibited cytotoxic effect in certain strains
